These results are taken from ChEMBL document CHEMBL1139881, “A tetrazolyl-substituted subtype-selective AMPA receptor agonist” (J Med Chem, 2007).

Amino acid sequences for entries named in this document (tags omitted). A change or cut given only in a name is not applied to a line headed by its entry.
UniProt P19491: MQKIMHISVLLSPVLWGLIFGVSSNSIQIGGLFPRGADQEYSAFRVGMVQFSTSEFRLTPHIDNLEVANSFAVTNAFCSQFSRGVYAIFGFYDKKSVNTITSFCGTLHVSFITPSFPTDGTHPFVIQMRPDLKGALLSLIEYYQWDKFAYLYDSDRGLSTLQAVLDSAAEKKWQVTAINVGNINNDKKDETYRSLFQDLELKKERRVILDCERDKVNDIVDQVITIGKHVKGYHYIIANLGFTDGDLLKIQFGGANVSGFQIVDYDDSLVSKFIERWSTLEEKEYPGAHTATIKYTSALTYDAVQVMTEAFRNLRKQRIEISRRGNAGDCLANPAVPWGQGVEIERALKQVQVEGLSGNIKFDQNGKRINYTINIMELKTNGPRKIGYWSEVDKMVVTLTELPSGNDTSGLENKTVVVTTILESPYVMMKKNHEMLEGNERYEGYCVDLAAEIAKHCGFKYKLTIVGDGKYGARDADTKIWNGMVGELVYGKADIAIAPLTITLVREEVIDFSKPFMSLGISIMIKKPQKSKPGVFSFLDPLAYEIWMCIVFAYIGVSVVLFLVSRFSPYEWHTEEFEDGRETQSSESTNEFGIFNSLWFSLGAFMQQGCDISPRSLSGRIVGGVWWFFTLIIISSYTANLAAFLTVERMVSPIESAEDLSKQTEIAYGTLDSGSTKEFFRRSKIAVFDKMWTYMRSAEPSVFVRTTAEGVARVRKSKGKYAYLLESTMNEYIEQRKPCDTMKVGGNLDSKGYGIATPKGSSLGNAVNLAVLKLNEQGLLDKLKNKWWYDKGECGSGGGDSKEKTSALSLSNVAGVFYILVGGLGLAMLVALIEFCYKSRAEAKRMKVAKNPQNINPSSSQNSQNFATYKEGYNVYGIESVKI

The target of the assay is Glutamate receptor 2 (Rattus norvegicus, UniProt P19491). Briefly: biochemical.

What is called Ki is a dissociation constant, usually derived from enzyme kinetics or from competition with a known ligand.

On to `NC(Cc1c(O)noc1-c1nnn(Cc2ccccc2)n1)C(=O)O` (racemic), for which the affinity corresponds to a Ki of 750 nM.
